Test results: patent US4766151A, “Ethers and oxime ethers of alkylamino alcohols as medicaments and novel products, and processes for their preparation” (Laboratoires, P.O.S., priority 1982, dated 1988)

Protein sequences, listed by entry. Tags and fused reporters are not part of them.
UniProt Q8K4Z4, whole entry: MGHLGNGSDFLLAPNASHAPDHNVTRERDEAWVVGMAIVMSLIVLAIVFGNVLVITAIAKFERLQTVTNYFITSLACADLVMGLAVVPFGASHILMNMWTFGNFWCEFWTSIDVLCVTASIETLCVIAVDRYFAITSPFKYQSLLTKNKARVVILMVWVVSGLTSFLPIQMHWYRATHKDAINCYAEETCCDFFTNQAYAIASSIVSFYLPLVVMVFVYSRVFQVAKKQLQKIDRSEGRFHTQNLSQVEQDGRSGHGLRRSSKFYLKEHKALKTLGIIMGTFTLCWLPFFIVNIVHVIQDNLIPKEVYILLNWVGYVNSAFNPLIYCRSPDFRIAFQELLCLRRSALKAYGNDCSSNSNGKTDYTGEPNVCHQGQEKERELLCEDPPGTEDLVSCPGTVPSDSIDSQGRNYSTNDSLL

Biological target: T1, isolated trachea of a guinea pig (Cavia porcellus, UniProt Q8K4Z4)
T1 construct: isolated trachea of a guinea pig; from tissue; host or cells: guinea pig isolated trachea
Experiment: pA2 measurement of beta-blocking activity on the isolated trachea of a guinea pig
Type: cell-based
Experimental: The PA2 is the co-logarithm of the concentration of antagonist in the presence of which it requires twice as much agonist as in its absence in order to achieve the same effect; see, on this subject: Calculation of the PAx, Technical Leaflet No. 16, J. Pharmacol. Paris 1971, 2, 3, 373-380. The PA2 was measured on the isolated auricle of a guinea pig and on the isolated trachea of a guinea pig. The product used by way of comparison is the following compound: [drawing 23]

CC(C)(C)NCC(O)CON=C(C1CC1)C1CC1 (stereo not shown) [Compound No. 2, 1-N-tert.-Butylamino-3-(dicyclopropyl-ketoneoximino)-propan-2-ol]
Trachea pA2: 8.67
